Each structure is given as a SMILES string. Only a part is listed here, and it is no random draw. Activity calls are given as the source filed them.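 Rule for the calls: active = mean replicate percent of control at or below 100 minus about 85%, very high polarization wells dropped (limit read from the data); inactive = the rest.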

Protein sequences, listed by entry. Tags and fused reporters are not part of them.
UniProt P08753, whole entry: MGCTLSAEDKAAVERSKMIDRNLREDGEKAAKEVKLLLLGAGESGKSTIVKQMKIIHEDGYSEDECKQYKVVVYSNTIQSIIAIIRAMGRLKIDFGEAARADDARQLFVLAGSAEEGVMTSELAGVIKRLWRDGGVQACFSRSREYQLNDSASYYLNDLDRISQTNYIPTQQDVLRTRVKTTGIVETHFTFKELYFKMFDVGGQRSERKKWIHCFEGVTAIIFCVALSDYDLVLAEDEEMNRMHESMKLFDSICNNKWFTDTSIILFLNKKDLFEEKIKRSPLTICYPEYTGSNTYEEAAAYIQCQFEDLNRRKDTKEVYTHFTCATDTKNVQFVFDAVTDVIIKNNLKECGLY
UniProt Q3V6T2, whole entry partner: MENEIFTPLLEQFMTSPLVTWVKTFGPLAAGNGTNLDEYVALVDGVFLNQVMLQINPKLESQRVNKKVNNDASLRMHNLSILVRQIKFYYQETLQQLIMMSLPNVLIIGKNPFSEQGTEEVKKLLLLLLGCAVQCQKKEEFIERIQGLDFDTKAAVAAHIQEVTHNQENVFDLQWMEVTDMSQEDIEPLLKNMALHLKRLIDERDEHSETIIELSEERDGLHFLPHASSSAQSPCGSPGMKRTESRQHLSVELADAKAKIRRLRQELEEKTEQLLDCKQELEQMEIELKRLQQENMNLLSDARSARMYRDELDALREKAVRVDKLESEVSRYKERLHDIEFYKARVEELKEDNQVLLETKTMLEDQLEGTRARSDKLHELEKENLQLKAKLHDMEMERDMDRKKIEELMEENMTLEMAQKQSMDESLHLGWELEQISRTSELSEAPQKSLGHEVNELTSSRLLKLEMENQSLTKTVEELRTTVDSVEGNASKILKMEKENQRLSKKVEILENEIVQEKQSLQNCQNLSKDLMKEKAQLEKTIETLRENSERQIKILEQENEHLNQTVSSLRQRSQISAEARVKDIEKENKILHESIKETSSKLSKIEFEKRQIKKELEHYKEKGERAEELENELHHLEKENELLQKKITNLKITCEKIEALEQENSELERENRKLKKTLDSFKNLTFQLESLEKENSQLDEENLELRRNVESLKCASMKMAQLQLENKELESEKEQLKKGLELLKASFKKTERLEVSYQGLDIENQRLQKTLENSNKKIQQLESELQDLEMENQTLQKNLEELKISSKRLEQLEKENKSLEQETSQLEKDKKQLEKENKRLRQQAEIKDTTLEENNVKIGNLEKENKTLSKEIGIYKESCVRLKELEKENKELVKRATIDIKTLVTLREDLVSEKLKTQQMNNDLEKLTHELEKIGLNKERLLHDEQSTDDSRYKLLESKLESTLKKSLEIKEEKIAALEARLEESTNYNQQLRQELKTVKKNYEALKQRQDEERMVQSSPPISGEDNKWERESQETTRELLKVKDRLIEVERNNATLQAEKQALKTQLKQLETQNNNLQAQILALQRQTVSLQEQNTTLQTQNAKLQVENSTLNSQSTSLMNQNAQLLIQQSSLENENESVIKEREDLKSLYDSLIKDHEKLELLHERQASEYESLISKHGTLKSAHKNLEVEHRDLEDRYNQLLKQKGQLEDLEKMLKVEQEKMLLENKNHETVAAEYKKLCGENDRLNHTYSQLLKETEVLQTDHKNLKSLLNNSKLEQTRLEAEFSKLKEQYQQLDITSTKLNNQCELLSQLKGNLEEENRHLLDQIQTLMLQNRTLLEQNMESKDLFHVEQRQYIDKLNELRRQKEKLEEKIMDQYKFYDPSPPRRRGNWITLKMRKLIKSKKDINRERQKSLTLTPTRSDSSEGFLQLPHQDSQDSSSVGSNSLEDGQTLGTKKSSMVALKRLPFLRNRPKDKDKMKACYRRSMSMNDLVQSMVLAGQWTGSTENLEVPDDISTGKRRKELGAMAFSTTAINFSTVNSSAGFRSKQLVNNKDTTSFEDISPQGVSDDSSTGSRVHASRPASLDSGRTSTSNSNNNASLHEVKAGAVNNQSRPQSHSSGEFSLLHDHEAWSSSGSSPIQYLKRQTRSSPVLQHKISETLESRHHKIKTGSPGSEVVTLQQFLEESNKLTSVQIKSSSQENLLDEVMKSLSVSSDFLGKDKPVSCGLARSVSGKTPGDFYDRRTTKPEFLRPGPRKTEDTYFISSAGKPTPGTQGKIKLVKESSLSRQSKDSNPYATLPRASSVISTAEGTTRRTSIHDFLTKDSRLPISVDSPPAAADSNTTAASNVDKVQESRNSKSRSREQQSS

This assay deals with Guanine nucleotide-binding protein G(i) subunit alpha-3 (Rattus norvegicus) (UniProt P08753). Description: disruptors of GIV-Galphai3 protein-protein interaction – biochemical, fluorescence polarization, FITC-GIV GBA peptide, rat Galphai3, primary screen (AID 1224905).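 Note: lower values mean more displacement of the GIV peptide from Galpha-i3.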 As to conditions: Galpha-i3/FITC-GIV peptide fluorescence polarization, 90 min; active compounds read low; scaled: aluminum fluoride 0%, vehicle 100%. On the technique in general: Polarisation of emitted light reports the rotation of a fluorescent probe.
Turning to `NC(=O)C1(Nc2ccc(F)cc2)CCNCC1`, the percent of control (FP) was inactive: 106%.
For `Cc1c(C(=O)NCC2(N(C)C)CCCCC2)oc2ccc(Br)cc12` the value was inactive: 101%; for `c1ccc(CN2CCC(Nc3ccc4c(c3)OCO4)CC2)cc1`, inactive: 111%.
The figure for `O=C(NCC1(N2CCOCC2)CCCCC1)c1ccccc1Br` is inactive: 100%; for `CCCCOc1ccccc1C(=O)NCC1(N2CCOCC2)CCCCC1` it is inactive: 102%; for `FC(F)(F)Oc1ccc(NC2CCNCC2)cc1` it is inactive: 102%.
For `Cc1ccc2c(C)c(C(=O)NCC3(N(C)C)CCCCC3)oc2c1C`, the percent of control (FP) is inactive: 107%.
For `CCCOc1cccc(C(=O)NCC2(N3CCOCC3)CCCCC2)c1`, the percent of control (FP) was inactive: 98.8%.
Regarding `CCOc1ccc(C(=O)NCC2(N3CCOCC3)CCCCC2)cc1`, the percent of control (FP) is inactive: 101%.
Consider `CC(C)(C)OC(=O)N1CCC(Nc2ccc(OC(F)(F)F)cc2)CC1`, for which the percent of control (FP) is inactive: 107%.
For `CCOC(=O)N1CCC(Nc2cccc(C)c2)CC1` the value was inactive: 98.9%.
For `O=C1CCN(Cc2ccccc2)CC1` the value was inactive: 106%.
The figure for `O=C(NCC1(N2CCOCC2)CCCCC1)c1ccc(Cl)cc1` is inactive: 103%.
Turning to `CCOC(=O)N1CCC(Nc2ccc(F)cc2)CC1`, the percent of control (FP) is inactive: 102%.
The figure for `Cc1c(C(=O)NCC2(N3CCOCC3)CCCCC2)oc2cc(Br)ccc12` is inactive: 98.3%.
For `COc1ccccc1C(=O)NCC1(N2CCOCC2)CCCCC1`, the percent of control (FP) was inactive: 104%.
The figure for `Cc1cc(C)c2c(C)c(C(=O)NCC3(N4CCOCC4)CCCCC3)oc2c1` is inactive: 98.3%.
For `N#CC1(Nc2ccccc2)CCN(Cc2ccccc2)CC1`, the percent of control (FP) is inactive: 103%.
As to `Cc1c(C(=O)NCC2(N3CCOCC3)CCCCC2)oc2ccc(Cl)cc12`, the percent of control (FP) is inactive: 105%.
On to `CCCN1CCC(Nc2ccc(OC)c(OC)c2)CC1`, for which the percent of control (FP) was inactive: 95%.
For `Cc1ccccc1NC1CC(C)(C)NC(C)(C)C1` the value was inactive: 99.3%; for `Cc1c(C(=O)NCC2(N3CCOCC3)CCCCC2)oc2ccc(Br)cc12`, inactive: 105%; for `COc1cc(C(=O)NCC2(N3CCOCC3)CCCCC2)cc(OC)c1OC`, inactive: 99.6%.
The figure for `Cc1c(C(=O)NCC2(N(C)C)CCCCC2)oc2ccc(Cl)cc12` is inactive: 105%; for `CC(C)(C)OC(=O)N1CCC(Nc2ccccc2)CC1` it is inactive: 99.5%.
The figure for `CC1CN(C)C(C)CC1Nc1ccccc1` (stereo not given) is inactive: 107%.
As for `CCN1CCC(Nc2ccc(F)cc2)CC1`, the percent of control (FP) was inactive: 105%.
`CC(C)(C)c1ccc(C(=O)NCC2(N3CCOCC3)CCCCC2)cc1`: the percent of control (FP) was inactive: 103%.
On to `Cc1ccccc1C(=O)NCC1(N(C)C)CCCCC1`, for which the percent of control (FP) was inactive: 106%.
The figure for `CC1CN(Cc2ccccc2)CCC1=O` (stereo not given) is inactive: 113%; for `CN(C)C1(CNC(=O)c2ccc(C(C)(C)C)cc2)CCCCC1` it is inactive: 103%; for `O=C(NCC1(N2CCOCC2)CCCCC1)c1ccccc1` it is inactive: 103%.
For `CCCN1CCC(Nc2cc(OC)cc(OC)c2)CC1` the value was inactive: 96.1%; for `O=C(NCC1(N2CCOCC2)CCCCC1)c1ccc([N+](=O)[O-])cc1`, inactive: 105%; for `Cc1c(C(=O)NCC2(N3CCOCC3)CCCCC2)oc2ccc(F)cc12`, inactive: 96.9%.
The figure for `O=C(NCC1(N2CCOCC2)CCCCC1)c1ccccc1[N+](=O)[O-]` is inactive: 103%; for `Cc1c(C(=O)NCC2(N(C)C)CCCCC2)oc2cc(Br)ccc12` it is inactive: 107%; for `O=C1CCN(CCc2ccccc2)CC1` it is inactive: 111%.
Consider `CN1CCC(Nc2ccc(F)cc2)CC1`, for which the percent of control (FP) is inactive: 103%.
For `NC(=O)C1(Nc2ccccc2)CCN(Cc2ccccc2)CC1` the value was inactive: 106%.

These data come from PubChem BioAssay AID1224905 (ICCB-Longwood Screening Facility, Harvard Medical School, 2016).
